# Like-named read-outs stand apart in the source and are kept apart here.
# Assay: everolimus arterial tissue concentration in and next to the stented vessel
# Type: in vivo
# Conditions: swine, 1070 μg, 8.0×28 mm stent; for concentration at 1 day: group 1, 1070 μg Lot #1, 1 day; for concentration at 3 days: group 1, 1070 μg Lot #1, 3 days; for concentration at 7 days: group 1, 1070 μg Lot #1, 7 days; for concentration at 14 days: group 1, 1070 μg Lot #1, 14 days; for concentration at 28 days: group 1, 1070 μg Lot #1, 28 days; for concentration at 56 days: group 1, 1070 μg Lot #1, 56 days; for concentration at 90 days: group 1, 1070 μg Lot #1, 90 days; for concentration at 180 days: group 1, 1070 μg Lot #1, 180 days
# [1] = read-out: drug concentration in tissue proximal to stented region
# [2] = arterial tissue of stented region, read-out: drug concentration in tissue of stented region
# [3] = arterial tissue, unstented segment distal to stented region, read-out: drug concentration in tissue distal to stented region
smiles,measurement,setting,value
"CO[C@H]1C[C@@H]2CC[C@@H](C)[C@@](O)(O2)C(=O)C(=O)N2CCCC[C@H]2C(=O)O[C@H]([C@H](C)C[C@@H]2CC[C@@H](OCCO)[C@H](OC)C2)CC(=O)[C@H](C)/C=C(\C)[C@@H](O)[C@@H](OC)C(=O)[C@H](C)C[C@H](C)/C=C/C=C/C=C/1C [everolimus, 40-O-(2-hydroxyethyl)-rapamycin]",concentration at 1 day,[1],403 ng/g
same,concentration at 3 days,[1],199 ng/g
same,concentration at 7 days,[1],159 ng/g
same,concentration at 14 days,[1],105 ng/g
same,concentration at 28 days,[1],66 ng/g
same,concentration at 56 days,[1],19 ng/g
same,concentration at 90 days,[1],12 ng/g
same,concentration at 180 days,[1],4 ng/g
same,concentration at 1 day,[2],9960 ng/g
same,concentration at 3 days,[2],12900 ng/g
same,concentration at 7 days,[2],10900 ng/g
same,concentration at 14 days,[2],6420 ng/g
same,concentration at 28 days,[2],5830 ng/g
same,concentration at 56 days,[2],833 ng/g
same,concentration at 90 days,[2],833 ng/g
same,concentration at 180 days,[2],209 ng/g
same,concentration at 1 day,[3],874 ng/g
same,concentration at 3 days,[3],870 ng/g
same,concentration at 7 days,[3],739 ng/g
same,concentration at 14 days,[3],296 ng/g
same,concentration at 56 days,[3],9 ng/g
same,concentration at 90 days,[3],9 ng/g
same,concentration at 180 days,[3],6 ng/g

# — patent publication US9358096B2, “Methods of treatment with drug eluting stents with prolonged local elution profiles with high local concentrations and low systemic concentrations” (Abbott Laboratories, priority 2007, dated 2016)
